Measured values taken from article PMC10108392, “Rimonabant-Based Compounds Bearing Hydrophobic Amino Acid Derivatives as Cannabinoid Receptor Subtype 1 Ligands” (ACS Medicinal Chemistry Letters, 2023).

Tested on: mice
Assay: Formalin test
Format: in vivo, mouse
Conditions: 100 μg in 20 μL s.c., 15 min before formalin
Protocol: testing. […] Then, the compounds were
Compounds were prepared by freshly diluting
Then, these solutions were injected for
The total time the animal spent licking or biting its paw was calculated.
Then, paw edema was calculated as formerly
Paw volume was quantified using a
Data Analysis and Statistics
Statistically significant differences between
Data were considered statistically
The data and statistical analyses respected the recommendations on experimental design and analysis.

Question: Which “formalin test, early phase (licking activity 0 to 10 min)” value does the source give for `CNC(=O)[C@@H](NC(=O)c1nn(-c2ccc(Cl)cc2)c(-n2cccc2)c1C)C(C)(C)C` [Compound 34, RS2691-tLeu-NHCH3] here?
Answer: slightly more effective than the pure CB1 agonist WIN55,212-2
